Publication PMC9214538, “The M1 muscarinic receptor is present in situ as a ligand-regulated mixture of monomers and oligomeric complexes” (Proceedings of the National Academy of Sciences of the …, 2022)

Protein sequences, listed by entry. Tags and fused reporters are not part of them. Lines headed by an entry give the natural chain unless they say otherwise; changes in a name come on top.
UniProt P12657: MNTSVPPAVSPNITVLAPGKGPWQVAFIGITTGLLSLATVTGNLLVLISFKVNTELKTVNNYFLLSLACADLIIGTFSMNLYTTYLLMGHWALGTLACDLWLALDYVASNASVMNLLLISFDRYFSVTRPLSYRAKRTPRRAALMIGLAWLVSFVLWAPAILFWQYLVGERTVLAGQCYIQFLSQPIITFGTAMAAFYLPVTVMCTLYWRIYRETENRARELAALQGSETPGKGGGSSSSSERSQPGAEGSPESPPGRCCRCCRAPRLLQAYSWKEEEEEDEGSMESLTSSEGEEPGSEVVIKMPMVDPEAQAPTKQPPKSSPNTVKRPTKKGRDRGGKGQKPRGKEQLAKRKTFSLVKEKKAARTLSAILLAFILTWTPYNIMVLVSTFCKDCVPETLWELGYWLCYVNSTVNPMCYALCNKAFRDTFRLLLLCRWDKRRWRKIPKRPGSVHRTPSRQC

Key:
M1-mEGFP receptor = M1-mEGFP receptor (Mus musculus, UniProt P12657); conditions: carbachol 1 × 10^−3 M, 30 min
[1] = biological target: M1 receptor and/or M1-mEGFP (Mus musculus, UniProt P12657); conditions: 1 mM carbachol, membranes from WT mice, Gαq/Gα11 immunoprecipitated
[2] = tested on: M1 receptor and/or M1-mEGFP; conditions: 1 mM carbachol, membranes from M1-KO mice
M1 receptor / M1-mEGFP = M1 receptor / M1-mEGFP (Mus musculus, UniProt P12657); assay: cell-based; conditions: pEC50, production of inositol phosphates

proportion of monomeric species (M1-mEGFP receptor; P < 0.0001 vs no ligand): markedly increased
dimer fraction (M1-mEGFP receptor; P < 0.001): associated reduction
oligomer fraction (M1-mEGFP receptor; P < 0.001): associated reduction
increase in bound [^35S]GTPγS [1]: approximately threefold
promotion of [^35S]GTPγS binding [2]: unable to promote binding of [^35S]GTPγS
EC50 (M1 receptor / M1-mEGFP; neuronal cultures from WT mice): 24 µM
EC50 (M1 receptor / M1-mEGFP; neuronal cultures from homozygous M1-mEGFP mice): 25.7 µM
Compound: C[N+](C)(C)CCOC(N)=O [carbachol]
distribution of the receptor (M1-mEGFP receptor): increased the apparent punctate distribution of the receptor
